# Values of other authors in US7422793B2, “Non-toxic corrosion-protection rinses and seals based on rare earth elements” (University of Dayton, priority 2002, dated 2008).
# Details: cerium or praseodymium source; at or near 25° C. and at or near pH 7; cited from earlier work
row,Compound,Solubility in Water
1,Praseodymium (III) perchlorate,2.2 × 10^0 mole/L

# Same assay, conditions: oxidizer sources; at or near 25° C. and at or near pH 7; cited from earlier work
row,Compound,Solubility in Water
1,Potassium chlorate,0.58 mol/L
2,O=NO,13.5 mol/L
3,Barium perchlorate,5.1 × 10^0 mole/L
4,Potassium perchlorate,0.36 mol/L
5,Ammonium permanganate,0.577 mol/L
6,Barium chlorate,0.85 mol/L
